{"source": "patent US20120022116A1", "about": "“COMPOSITIONS AND METHODS FOR THE TREATMENT OF PATHOLOGICAL CONDITION(S) RELATED TO GPR35 AND/OR GPR35-HERG COMPLEX” (priority 2010, published 2012)", "tested_on": "hERG channel", "data": [{"compound": "O=C(O)Cc1ccccc1Nc1c(Cl)cccc1Cl", "note": "[Diclofenac]", "values": [{"measurement": "Desenstization to hERG activator", "value": "inactive"}]}]}
